Tested on: chemokine KC
Assay: Serum levels of the chemokine KC by ELISA in mice after administration
Conditions: 0.2-, 2.0-, 20-, 200-μg doses, subcutaneous injection vs oral gavage, serum two hours later

CCC(C)C(N)C(=O)N1CCCC1B(O)O (stereo not shown) [Ile-boroPro]
Potency in induction of serum KC response, subcutaneous versus oral: more potent in the induction of a KC response

From US20040077601A1, “Methods and compositions relating to isoleucine boroproline compounds” (Point Therapeutics, Inc., priority 2002, published 2004)
